Tested on: RNA target: 5′-rG CUA GAG AAG UC G (SEQ ID NO: 40)
Experiment: UV melting, two triazole linkages MeC-MeC steps, RNA target (Table 7)
Conditions: for ΔTm/mod RNA target: per modification, relative to unmodified duplex (ON35); for Tm RNA target: two MeC-MeC steps

With 5′-dCGA^MeCt^MeC^LTCT^MeCt^MeC^LAGC as the substance, how does the ΔTm/mod RNA target read?
The ΔTm/mod RNA target was -1.5 °C.

And the “Tm RNA target” value?
The value was 67.1.

Which “Tm RNA target” value does the source give for 5′-dCGA^MeCp^MeCTCT^MeCp^MeCAGC here?
Its value is 70.1.

With 5′-dCGA^MeCt^MeCTCT^MeCt^MeCAGC as the substance, how does the ΔTm/mod RNA target read?
The ΔTm/mod RNA target was -5.5 °C.

What about the “Tm RNA target” value of the same substance?
The value was 59.1.

Which ΔTm/mod RNA target does the source give for 5′-dCGA^MeCp^MeC^LTCT^MeCp^MeC^LAGC here?
Its ΔTm/mod RNA target is greater than 2.5 °C.

And the “Tm RNA target” value?
Its value is greater than 75.

— US11110114B2, “Dinucleotides” (OXFORD UNIVERSITY INNOVATION LIMITED, priority 2017, dated 2021)
